# System: HCC827 ER #15
# Experiment: Combined use of erlotinib and antibodies in erlotinib resistant cell line, cell number by CCK-8
# Type: cell-based, human
# Description: In the HCC827 ER #15, of which resistance to erlotinib was confirmed in Example 4, the effects of single treatments and combined treatment of erlotinib and the anti-c-Met antibody L3-1Y manufactured in the Reference Example were tested.
# In a 96 well plate, diluted HCC827 ER #15 was seeded at 5000 cells/well in a […] medium (GIBCO) containing 10% FBS, and then, incubated at 37° C. overnight. On the next day, the medium was replaced with a RPMI1640 medium containing 1% FBS (GIBCO), and then, the antibody was serially diluted from 100 ug/ml, and the cells were treated therewith at 100 ul. For co-administration, the cells were treated with 10 nM or 100 nM erlotinib, together with the antibody. After 5 days, the number of cells was measured using a CCK-8 reagent (Dojindo laboratory).
# Meanwhile, even when a test was conducted again while fixing the concentration of the drugs used for co-administration, the identical effects could be confirmed. The cell viability of HCC827 ER#15 is shown in FIG. 5 when the antibodies and erlotinib were co-administered while fixing the concentration of the antibodies at 0.14 μg/ml, and the concentration of erlotinib at 10 nM.
substance,measurement,setting,value
Cetuximab [reference compound],synergistic effect of co-administration with erlotinib,"HCC827 ER #15, antibody dilution series with 10 nM or 100 nM erlotinib, 5 days, FIGS. 4a-4d",synergistic effect was not observed
same,"synergistic effects on cell viability, co-administration with erlotinib at fixed concentrations","HCC827 ER#15, antibodies 0.14 μg/ml, erlotinib 10 nM, FIG. 5",synergistic effects were not observed
